## Antibody variant affinities, Ab-14 heavy chain, assay B

Values reported by Li et al. 2023, doi:10.1038/s41467-023-39022-2 (FLAb copy).

All variants were tested on one target, the spike HR2 peptide PDVDLGDISGINAS (SARS-CoV-2).

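The starting antibody came from a phage panning campaign against this peptide. These sequences belong to a second round, designed from the earlier measurements on random variants of the parent. Several design methods are mixed in this list. AlphaSeq pools MATa yeast showing the antibodies with MATalpha yeast showing the peptide. Mating (16 h, 30 °C) was followed by selection of diploids and sequencing of their barcodes. The ratio of observed to expected reads was calibrated, replicate by replicate, on BCL2-family standards whose Kd was known from biolayer interferometry. There are six technical replicates.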

Each scFv is VH, three GGGGS repeats, VL, as in the parent Ab-14, and differs from it in the CDRs of the heavy chain only.
VH: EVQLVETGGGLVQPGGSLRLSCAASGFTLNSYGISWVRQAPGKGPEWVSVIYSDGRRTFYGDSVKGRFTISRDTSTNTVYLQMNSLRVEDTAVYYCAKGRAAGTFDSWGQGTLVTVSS
VL: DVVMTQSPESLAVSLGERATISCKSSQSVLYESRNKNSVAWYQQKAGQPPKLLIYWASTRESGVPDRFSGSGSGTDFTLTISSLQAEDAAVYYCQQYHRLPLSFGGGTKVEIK

Variants are written as CDR1, CDR2 and CDR3 of the heavy chain (limits as in the source). Parent: GFTLNSYGIS, VIYSDGRRTFYGDSVK, GRAAGTFDS.
This list holds designs with at most six substitutions.
Affinities are written as log10 Kd with Kd in nM; a lower number is a better binder.
A mean of the replicates is given; it leaves out those without a signal.
"nd" means that the variant was in the library but no mating with the target was seen in that replicate; the authors take this as a sign of poor binding, and no number exists.

The variant GFNLNSYGIS / VIYSDGRRTFYGDSVK / GRLAGTFDS gave 1.88, 1.25, 1.32, 0.99, 1.34, 1.24 (mean 1.34).
The variant GFDLNSYGIS / VIYSDGRRTFYGDSVK / GQEAGTFDT gave 0.41, 0.05, -0.34, -0.20, -0.30, 0.27 (mean -0.02).
The variant GFGLNEYGIS / VIYSDGRRTFYIDSVK / GRAAGTFDS gave nd, 0.01, 0.48, 0.58, 0.86, 0.04 (mean 0.39).
The variant GFSLNEYGIS / VIYSDGRRTFYCDSVK / GSAAGTFDR gave nd, nd, nd, nd, nd, nd.
The variant GFTLNQYGIS / VIYSDGRRTFYGDSVK / DRAAGTFDS gave 1.96, 1.11, 1.22, 1.73, 0.87, 1.57 (mean 1.41).
The variant GFSLNEYGIS / VIYSDGRRTFYGDSVK / GRTAGTFDL gave 0.22, 0.36, 0.32, -0.24, 0.29, 0.33 (mean 0.21).
The variant GFTLDMYGIS / VIYSDGRRTFYGDSVK / GRAAGTALS gave nd, nd, nd, nd, nd, nd.
The variant GFNLNDYGIS / VIYSDGRRTAYGDAVK / GRAIGTFDS gave nd, nd, nd, nd, nd, nd.
The variant GFTLNSYGIS / VIYSDGRRTFYSDSVK / GRAVGTFDT gave nd, nd, nd, nd, nd, nd.
The variant GFTLESYGIS / VIYSDGRRTFYSDSVK / GWAVGTFDS gave nd, nd, nd, nd, nd, nd.
The variant GFSLNSYGIS / VIYSDGRRTFYSDSVK / GKNAGTFDS gave 0.59, 0.35, 0.40, 0.07, 0.46, 0.40 (mean 0.38).
The variant GFDLNMYGIS / VIYSDGRRTFYADSVK / GQAAGTFDS gave 0.47, -0.16, -0.27, -0.39, -0.14, -0.39 (mean -0.15).
The variant GFDLNSYGIS / VIYSDGRRTFYGDSVK / GRAAGTFDS gave 0.86, 2.56, 1.03, 0.91, 1.60, 1.97; 0.62, 0.33, 0.16, 0.58, -0.05, 0.44 (mean 0.92).
The variant GFTLNSYGIS / VIYSDGRRTFYADSVK / GWTAGTFDS gave nd, nd, -0.24, -0.41, nd, 0.92 (mean 0.09).
The variant GFTLDSYGIS / VIYSDGKRTFYGDSVK / GRAAGTFDQ gave 1.51, 1.17, 1.56, 1.64, 1.35, 2.19 (mean 1.57).
The variant KFQLNEYGIS / VIYSDGRRTFYGDSVK / GRCAGTFDS gave nd, nd, nd, nd, nd, nd.
The variant GFTLNSYGIS / VIYADGRRTAYGDSVK / GRAAGEFDS gave nd, nd, nd, nd, nd, nd.
The variant GFTLNSYGIS / VIYSDGRRTFYGDSVK / GWVAGTFDT gave 1.47, 1.87, 0.86, 0.93, 0.58, 1.71 (mean 1.24).
The variant GFELNTYGIS / VIYSDGRRTFYGDNVK / GRTAGTFDS gave 0.78, 0.76, 0.49, 0.75, 0.28, 0.56 (mean 0.60).
The variant TFTLNEYGIS / VIYSDGRRTFYGDSVK / GRWAGTFDS gave nd, nd, nd, nd, nd, nd.
The variant GFTLMMYGIS / VIYSDGRRTFYGDSVK / GRAAGTFDS gave nd, nd, nd, nd, nd, nd.
The variant GFTLNEYGIS / VIYSDGRRTFYGDSVK / GRAALTFIS gave nd, nd, nd, nd, nd, nd.
The variant GFDLNSYGIS / VIYSDGRRWFYGDSVK / GRTAGTFDS gave 2.28, 2.29, 1.54, 1.09, 1.97, 1.94 (mean 1.85).
The variant GFDLNEYGIS / VIYADGRRTFYSDSVK / GEAAGTFDF gave -1.21, -0.48, -1.24, -1.20, -0.80, -0.86 (mean -0.96).
The variant GFSLNEYGIS / VIYSDGRRTFYGDSVK / GRAAETFDQ gave nd, nd, nd, nd, 3.75, nd.
The variant GFTLNSYGIS / VIYSDGRRTFYKDSVK / GRAAGTFPS gave nd, nd, nd, 1.47, 0.39, nd (mean 0.93).
The variant GFTLNSYGIS / VIYSDGRRTIYGDSVK / GRAAGSFND gave 1.95, nd, nd, nd, nd, nd.
The variant GFTLNEYGIS / VIYSDGRRVFYADSVK / GRAAGLFES gave nd, nd, nd, nd, 3.33, nd.
The variant GFELNSYGIS / VIYSDGRRTFYTDSVK / GKQAGTFDS gave 0.51, 0.50, 0.18, 0.47, 0.20, 0.51 (mean 0.40).
The variant GFTLNSYGYS / VIYSDGRRTFYGDSVK / GRAAKTFDS gave nd, nd, nd, nd, nd, nd.
The variant GFNLNSYGIS / VIYSDGRRTFYGDDVK / GRAAGHFNS gave nd, nd, nd, nd, nd, nd.
The variant GFQLNSYGIS / VIYSDGRRTFYQDSVK / GRTAGTFDL gave nd, 1.58, nd, nd, nd, nd.
The variant GFTLNSYGSS / VIYADGRRTSYGDSVK / GRAAGTNKS gave nd, nd, nd, nd, nd, nd.
The variant GFQLNSYGIS / VIYSDGRRTEYGDSVK / GRAAGTFDS gave nd, nd, nd, nd, nd, nd.
The variant GFGLNEYGIS / VIYSDGRRTFYIDSVK / GNAAGTFDS gave 0.05, 0.11, 0.28, 0.14, 0.08, 0.34 (mean 0.17).
The variant GFNLNSYGIS / RIYSDGRRTFYGDSVA / VRAAGTFHS gave nd, nd, nd, nd, nd, nd.
The variant GFTLNEYGIS / VIYSDGRRTFYGDSVK / GSAAGRFDS gave nd, nd, nd, nd, nd, nd.
The variant GNTLNEYGIS / VIYSDGRRTFYHDSVK / GRCAGTFDS gave nd, nd, 1.18, nd, nd, nd.
The variant GFSLKEYGIS / VIYSDGRRTFYGDSVK / GRTAGTFDS gave -0.62, -0.61, -0.82, -0.24, -0.59, -0.74 (mean -0.60).
The variant QFDLNSYGIS / VIYSDGIRTFYGNSVK / GAEAGTFDS gave 2.46, nd, 2.48, 1.95, 2.77, nd (mean 2.42).
The variant GFTLNSYGIS / VIYSDGRRTFYMDSVK / GRVAGTFDP gave nd, nd, nd, nd, nd, nd.
The variant GKTLDSYGIS / VIYSDGRRTFYGDSPK / GRAAGTALS gave nd, nd, nd, nd, nd, nd.
The variant GRTLNSYGIS / VIYSDGRRTFYSDSVK / HRAASTFDS gave nd, nd, nd, nd, nd, nd.
The variant MFDLNSYGIS / VIYSDGRRTFYHDSVK / GRTAGTFDS gave 0.95, 0.62, 0.98, 0.47, 0.89, 0.15 (mean 0.68).

Picked from the list: the 5 lowest averages where every replicate gave a value.

Variant GFDLNEYGIS / VIYADGRRTFYSDSVK / GEAAGTFDF showed -1.21, -0.48, -1.24, -1.20, -0.80, -0.86 (mean -0.96).
Variant GFSLKEYGIS / VIYSDGRRTFYGDSVK / GRTAGTFDS showed -0.62, -0.61, -0.82, -0.24, -0.59, -0.74 (mean -0.60).
Variant GFDLNMYGIS / VIYSDGRRTFYADSVK / GQAAGTFDS showed 0.47, -0.16, -0.27, -0.39, -0.14, -0.39 (mean -0.15).
Variant GFDLNSYGIS / VIYSDGRRTFYGDSVK / GQEAGTFDT showed 0.41, 0.05, -0.34, -0.20, -0.30, 0.27 (mean -0.02).
Variant GFGLNEYGIS / VIYSDGRRTFYIDSVK / GNAAGTFDS showed 0.05, 0.11, 0.28, 0.14, 0.08, 0.34 (mean 0.17).

A sequence measured in both rounds can read differently, since the two assays cover different ranges.
A sequence that the file lists under several names has all its replicates listed entry by entry, parted by semicolons.
Empty control strains, which show no peptide, gave a signal in 1% of pairings with all heavy chain designs; the median was 2.08 and 95% of these signals were weaker than 0.84. No background was subtracted.
The parent sequence was in this pool as ten entries: three were never detected, three once, and four in most replicates, with averages from 0.34 to 2.37.
In the paper, a design with two or fewer of six values counts as a poor binder.